Source: publication PMC8958505, “Discovery of Potential Neuroprotective Agents against Paclitaxel-Induced Peripheral Neuropathy” (Journal of Medicinal Chemistry, 2022)
“And” between values parts separate entries of the source, which are not always exact repeats. Identical values can stand only once. Counter-ions that a name gives are not always drawn.

Tests used:
[1] = test system: Rolipram; assay: LeadProfilingScreen: Rolipram; format: binding, rat; details: 10 μM
[2] = biological target: Cannabinoid CB1 (Homo sapiens, UniProt P21554); assay: LeadProfilingScreen: Cannabinoid CB1; format: binding
[3] = test system: paclitaxel-induced neuropathy in C57BL/6 mice; assay: Tail immersion test (thermal sensation) in paclitaxel-induced neuropathy; format: in vivo, mouse
Procedure: Three behavioral models of paclitaxel-induced neuropathy were used to verify the neuroprotective effect of CN016. Namely, thermal and mechanical nociceptive reactions described below were evaluated by tail immersion and von Frey filament tests, respectively, and motor coordination was assessed with the rotarod performance test (Supporting Information, Figure S1A,B). To mimic the clinical therapeutic regimen, CN016 (5, 10 and 20 mg/kg) was administrated to 7-week-old female C57BL/6 mice by intraperitoneal injection (IP) 1 h prior to each injection of paclitaxel (4.5 mg/kg) on four alternate days (days 1, 3, 5, and 7). Each test’s basal level was recorded before treatment, and additional sessions of behavior tests were performed weekly for five weeks (Figure 4A).
The baseline of every neurological behavior test was measured in 6-week-old C57BL/6J female mice prior to treatment. […] Mechanical hyperalgesia was evaluated by using von Frey filament (#2390, IITC Inc., USA), thermal sensitivity was determined by the tail immersion assay (water temperature: 48–49 °C), and motor coordination was assessed by rotarod (#7750, Ugo Basile Biological Research Apparatus, Italy). After the first drug implantation, the body weight was recorded every 6 days throughout the entire experiment.

[4] = test system: Nicotinic Acetylcholine; assay: 67 off-target study: Nicotinic Acetylcholine (as named in Table S5); format: binding; details: 10 μM; item as named in Table S5
[5] = biological target: Estrogen ERα (Homo sapiens, UniProt P03372); assay: LeadProfilingScreen: Estrogen ERα; format: binding
[6] = biological target: Opiate κ (OP2, KOP) (Homo sapiens, UniProt P41145); assay: LeadProfilingScreen: Opiate κ (OP2, KOP); format: binding
[7] = biological target: Platelet Activating Factor (PAF) (Homo sapiens, UniProt P25105); assay: LeadProfilingScreen: Platelet Activating Factor (PAF); format: binding
[8] = biological target: Muscarinic M2 (Homo sapiens, UniProt P08172); assay: LeadProfilingScreen: Muscarinic M2; format: binding
[9] = Pharmacokinetics after intraperitoneal administration; format: in vivo; details: male, ICR, mouse, plasma, 5 mg/kg, 5 mg/kg IP, at one hour
Procedure: Male ICR mice weighed (29–33 g) were obtained from BioLASCO (Taiwan Co., Ltd., Ilan, Taiwan). The animal studies were performed according to NHRI institutional animal care and committee-approved procedures. Food and water were available ad libitum throughout the experiment. A single 5.0 mg/kg dose of CN016 was dissolved in normal saline and was separately administered to mice intravenously. The groups consisted of three mice for each time point. At times 0.03, 0.08, 0.25, 0.5, 1, 2, 4, 6, 8, 16, and 24 h after dosing, blood was collected from groups of three mice at each time point by cardiac puncture. Plasma was separated from blood and stored in a freezer (−80 °C) before LC/MS/MS analysis. In addition, pharmacokinetic analysis of CN016 following intraperitoneal administration (IP, 5 mg/kg) is provided in Figure S2 (Supporting Information).
Figure S2. Pharmacokinetic profiles of CN016 (5 mg/kg) after intraperitoneal administration. (A) Plasma concentration-time profiles of the CN016 after intraperitoneal injection of a 5 mg/kg dose. Red Circle: a drug concentration of 10 nM.
Blue Triangle: a drug concentration of 1000 nM. (B) Pharmacokinetic parameter of CN016 after intraperitoneal administration.
The pharmacokinetics of CN016 after IP administration (5 mg/kg) is illustrated in Figure S2. […]

[10] = biological target: Nicotinic Acetylcholine α3β4 (Homo sapiens, UniProt P30926+P32297); assay: LeadProfilingScreen: Nicotinic Acetylcholine α3β4; format: binding
[11] = biological target: Transporter, Serotonin (5-Hydroxytryptamine) (SERT) (Homo sapiens, UniProt P31645); assay: LeadProfilingScreen: Transporter, Serotonin (SERT); format: binding
[12] = biological target: Epidermal Growth Factor (EGF) (Homo sapiens, UniProt P00533); assay: LeadProfilingScreen: Epidermal Growth Factor (EGF); format: binding

Q: With O=P(O)(O)CCN1CCC(Nc2cc(N3CCOCC3)nc(NCc3cn(CCCO)nn3)n2)CC1 [CN016, {2-[4-(2-{[1-(3-Hydroxy-propyl)-1H-[1,2,3]triazol-4-ylmethyl]-amino}-6-morpholin-4-yl-pyrimidin-4-ylamino)-piperidin-1-yl]-ethyl}-phosphonic Acid Hydrobromide Salt] as the molecule, how does the “Inhibition (%), Rolipram” value [1] read?
A: 6%

Q: And the inhibition at 10 µM [2]?
A: -5%

Q: What about the “alleviation of thermal insensitivity (tail immersion)” value ([3]; CN016 5 mg/kg IP 1 h prior to paclitaxel 4.5 mg/kg) of the same molecule?
A: only moderately alleviated

Q: And the “alleviation of paclitaxel-induced thermhypesthesia (tail immersion)” value ([3]; CN016 10 or 20 mg/kg IP 1 h prior to paclitaxel 4.5 mg/kg, days 1, 3, 5, 7)?
A: able to alleviate

Q: And the “Inhibition (%), Nicotinic Acetylcholine” value [4]?
A: -6%

Q: And the inhibition at 10 µM [5]?
A: -17%

Q: What about the inhibition at 10 µM [6] of the same molecule?
A: 3%

Q: And the inhibition at 10 µM [7]?
A: -6%

Q: And the inhibition at 10 µM [8]?
A: -1%

Q: And the concentration at 1 h [9]?
A: 58 ng/mL and 84.4 nM

Q: And the inhibition at 10 µM [10]?
A: 7%

Q: And the inhibition at 10 µM [11]?
A: -4%

Q: And the inhibition at 10 µM [12]?
A: -1%
